From US9682141B2, “Combination of kinase inhibitors and uses thereof” (INTELLIKINE LLC, priority 2011, dated 2017)

The chains behind the UniProt entries cited, without tags or fusion partners. Where a name states a change or a piece, a line headed by the entry shows the natural chain unless it says otherwise.
UniProt P42336, whole entry: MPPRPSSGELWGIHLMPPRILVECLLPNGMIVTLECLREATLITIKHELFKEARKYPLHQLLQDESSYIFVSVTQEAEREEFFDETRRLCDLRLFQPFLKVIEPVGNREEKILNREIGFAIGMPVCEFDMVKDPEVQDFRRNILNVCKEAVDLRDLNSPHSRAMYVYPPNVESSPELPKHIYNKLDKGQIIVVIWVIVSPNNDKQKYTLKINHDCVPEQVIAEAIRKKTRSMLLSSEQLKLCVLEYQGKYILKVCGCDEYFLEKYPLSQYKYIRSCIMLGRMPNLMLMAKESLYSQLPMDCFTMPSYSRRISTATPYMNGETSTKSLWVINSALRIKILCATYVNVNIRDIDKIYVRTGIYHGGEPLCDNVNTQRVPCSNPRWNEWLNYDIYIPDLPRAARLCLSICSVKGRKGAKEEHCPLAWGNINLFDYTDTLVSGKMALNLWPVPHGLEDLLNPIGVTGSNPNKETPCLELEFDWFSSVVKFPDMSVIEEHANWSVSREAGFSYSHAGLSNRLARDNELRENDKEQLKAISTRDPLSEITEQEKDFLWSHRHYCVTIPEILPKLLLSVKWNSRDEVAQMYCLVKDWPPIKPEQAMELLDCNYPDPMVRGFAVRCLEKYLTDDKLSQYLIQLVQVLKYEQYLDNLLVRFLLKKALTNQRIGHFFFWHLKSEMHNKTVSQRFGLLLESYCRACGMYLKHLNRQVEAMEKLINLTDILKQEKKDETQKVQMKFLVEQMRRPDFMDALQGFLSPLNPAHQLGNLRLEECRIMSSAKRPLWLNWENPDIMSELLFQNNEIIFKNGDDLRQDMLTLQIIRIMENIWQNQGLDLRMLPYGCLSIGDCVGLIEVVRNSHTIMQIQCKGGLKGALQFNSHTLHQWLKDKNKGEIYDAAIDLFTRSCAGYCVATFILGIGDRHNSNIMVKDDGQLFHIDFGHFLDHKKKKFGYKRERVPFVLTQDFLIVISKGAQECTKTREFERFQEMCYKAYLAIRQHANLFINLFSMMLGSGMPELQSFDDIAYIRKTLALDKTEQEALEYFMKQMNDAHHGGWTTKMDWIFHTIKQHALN
UniProt O00329, whole entry: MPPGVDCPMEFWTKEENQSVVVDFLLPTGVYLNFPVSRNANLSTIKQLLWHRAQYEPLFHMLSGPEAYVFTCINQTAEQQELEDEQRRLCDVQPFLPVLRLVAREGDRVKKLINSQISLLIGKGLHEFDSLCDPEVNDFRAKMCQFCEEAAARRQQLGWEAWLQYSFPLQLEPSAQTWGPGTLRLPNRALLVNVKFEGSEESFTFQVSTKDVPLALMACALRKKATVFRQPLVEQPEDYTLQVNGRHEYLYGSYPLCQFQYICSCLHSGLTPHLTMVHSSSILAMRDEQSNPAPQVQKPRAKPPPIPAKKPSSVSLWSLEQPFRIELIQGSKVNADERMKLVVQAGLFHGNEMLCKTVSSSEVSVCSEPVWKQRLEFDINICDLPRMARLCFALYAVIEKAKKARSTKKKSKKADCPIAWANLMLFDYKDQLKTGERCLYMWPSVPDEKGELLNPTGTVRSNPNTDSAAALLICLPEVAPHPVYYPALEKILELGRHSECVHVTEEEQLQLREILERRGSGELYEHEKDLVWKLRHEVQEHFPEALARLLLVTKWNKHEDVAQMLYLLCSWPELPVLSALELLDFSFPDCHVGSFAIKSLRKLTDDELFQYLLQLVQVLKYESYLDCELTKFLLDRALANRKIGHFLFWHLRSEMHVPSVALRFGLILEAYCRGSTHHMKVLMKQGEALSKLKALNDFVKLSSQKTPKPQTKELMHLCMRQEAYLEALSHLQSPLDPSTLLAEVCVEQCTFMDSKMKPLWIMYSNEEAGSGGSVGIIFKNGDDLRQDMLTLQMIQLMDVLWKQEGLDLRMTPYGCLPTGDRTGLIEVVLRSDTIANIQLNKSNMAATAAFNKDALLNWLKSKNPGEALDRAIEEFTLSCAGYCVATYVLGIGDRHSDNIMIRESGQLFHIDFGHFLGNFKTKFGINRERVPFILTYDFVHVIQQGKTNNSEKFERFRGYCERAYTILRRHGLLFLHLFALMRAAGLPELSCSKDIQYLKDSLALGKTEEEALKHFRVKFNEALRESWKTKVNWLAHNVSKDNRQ
UniProt P48736, whole entry: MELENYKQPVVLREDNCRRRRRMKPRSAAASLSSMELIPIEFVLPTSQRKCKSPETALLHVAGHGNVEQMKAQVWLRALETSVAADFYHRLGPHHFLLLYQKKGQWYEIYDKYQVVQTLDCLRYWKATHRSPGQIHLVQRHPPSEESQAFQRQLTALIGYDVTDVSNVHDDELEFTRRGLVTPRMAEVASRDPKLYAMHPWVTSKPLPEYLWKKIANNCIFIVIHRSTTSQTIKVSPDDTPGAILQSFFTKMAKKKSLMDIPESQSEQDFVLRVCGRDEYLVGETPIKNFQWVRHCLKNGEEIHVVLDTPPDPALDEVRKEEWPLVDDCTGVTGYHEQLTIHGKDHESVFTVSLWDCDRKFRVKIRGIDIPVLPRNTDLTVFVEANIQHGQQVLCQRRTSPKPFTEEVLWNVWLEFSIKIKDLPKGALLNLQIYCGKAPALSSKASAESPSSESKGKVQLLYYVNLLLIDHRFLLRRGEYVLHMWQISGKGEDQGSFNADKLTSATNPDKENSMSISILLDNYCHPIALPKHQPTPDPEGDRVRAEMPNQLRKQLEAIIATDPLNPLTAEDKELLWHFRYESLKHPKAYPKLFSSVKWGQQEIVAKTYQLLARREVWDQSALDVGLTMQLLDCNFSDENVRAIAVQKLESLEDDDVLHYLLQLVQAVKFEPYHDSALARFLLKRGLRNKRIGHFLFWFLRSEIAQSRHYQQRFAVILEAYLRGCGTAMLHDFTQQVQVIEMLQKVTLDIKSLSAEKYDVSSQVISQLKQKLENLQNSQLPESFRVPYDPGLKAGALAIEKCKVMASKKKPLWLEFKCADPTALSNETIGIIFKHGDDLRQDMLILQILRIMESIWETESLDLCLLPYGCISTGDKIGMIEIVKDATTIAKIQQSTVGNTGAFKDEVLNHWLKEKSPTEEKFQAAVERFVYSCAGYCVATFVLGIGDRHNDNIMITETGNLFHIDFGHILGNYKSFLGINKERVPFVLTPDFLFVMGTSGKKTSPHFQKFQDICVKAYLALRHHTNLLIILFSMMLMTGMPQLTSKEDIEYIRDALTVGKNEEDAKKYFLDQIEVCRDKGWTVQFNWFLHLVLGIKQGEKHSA
UniProt P42338, whole entry: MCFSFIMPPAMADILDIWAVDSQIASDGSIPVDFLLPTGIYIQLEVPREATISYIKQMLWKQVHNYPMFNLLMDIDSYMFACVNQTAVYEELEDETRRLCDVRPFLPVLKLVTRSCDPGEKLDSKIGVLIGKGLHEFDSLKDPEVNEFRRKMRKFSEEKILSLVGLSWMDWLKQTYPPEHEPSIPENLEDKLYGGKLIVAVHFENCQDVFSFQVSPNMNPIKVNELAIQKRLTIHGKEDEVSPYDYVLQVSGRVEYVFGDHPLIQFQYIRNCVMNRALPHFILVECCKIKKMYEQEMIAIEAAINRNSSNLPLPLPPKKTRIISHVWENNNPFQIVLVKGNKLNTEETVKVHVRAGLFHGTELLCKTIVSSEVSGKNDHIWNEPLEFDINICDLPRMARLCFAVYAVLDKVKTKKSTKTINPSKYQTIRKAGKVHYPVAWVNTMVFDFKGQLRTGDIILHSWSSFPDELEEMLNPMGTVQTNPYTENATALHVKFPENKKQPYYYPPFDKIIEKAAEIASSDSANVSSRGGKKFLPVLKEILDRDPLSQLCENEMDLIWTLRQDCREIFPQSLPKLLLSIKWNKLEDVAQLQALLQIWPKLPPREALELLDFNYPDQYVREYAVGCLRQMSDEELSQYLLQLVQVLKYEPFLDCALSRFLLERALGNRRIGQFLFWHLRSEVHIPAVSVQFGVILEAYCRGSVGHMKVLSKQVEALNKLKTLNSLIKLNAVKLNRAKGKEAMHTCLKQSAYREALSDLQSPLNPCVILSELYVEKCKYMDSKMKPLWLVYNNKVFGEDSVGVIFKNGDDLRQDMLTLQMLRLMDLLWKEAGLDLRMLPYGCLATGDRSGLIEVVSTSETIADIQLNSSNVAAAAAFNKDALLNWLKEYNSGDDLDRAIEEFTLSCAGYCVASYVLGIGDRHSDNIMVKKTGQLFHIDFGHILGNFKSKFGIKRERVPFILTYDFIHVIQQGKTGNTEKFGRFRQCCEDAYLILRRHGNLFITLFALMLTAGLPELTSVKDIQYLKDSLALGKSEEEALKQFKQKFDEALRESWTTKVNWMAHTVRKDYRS
UniProt P27986, whole entry partner: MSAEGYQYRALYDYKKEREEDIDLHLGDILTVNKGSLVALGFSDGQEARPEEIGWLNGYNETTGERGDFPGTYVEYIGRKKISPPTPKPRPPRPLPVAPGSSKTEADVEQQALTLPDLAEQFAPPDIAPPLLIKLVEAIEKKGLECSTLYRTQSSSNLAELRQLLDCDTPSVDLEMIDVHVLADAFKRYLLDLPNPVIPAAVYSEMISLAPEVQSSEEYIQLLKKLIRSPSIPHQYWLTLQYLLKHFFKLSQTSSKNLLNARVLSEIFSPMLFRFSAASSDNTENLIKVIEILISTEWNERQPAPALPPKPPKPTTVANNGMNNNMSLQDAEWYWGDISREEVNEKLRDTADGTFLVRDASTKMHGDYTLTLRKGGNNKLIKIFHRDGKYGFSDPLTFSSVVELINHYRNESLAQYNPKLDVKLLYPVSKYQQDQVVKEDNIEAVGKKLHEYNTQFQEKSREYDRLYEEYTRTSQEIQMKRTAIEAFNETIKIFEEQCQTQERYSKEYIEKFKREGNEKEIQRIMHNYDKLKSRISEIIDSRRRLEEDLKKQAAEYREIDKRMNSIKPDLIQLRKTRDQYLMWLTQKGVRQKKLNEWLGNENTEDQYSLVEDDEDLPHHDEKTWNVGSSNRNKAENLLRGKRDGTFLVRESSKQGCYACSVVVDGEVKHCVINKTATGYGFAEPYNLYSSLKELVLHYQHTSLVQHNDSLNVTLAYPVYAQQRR

Assays:
PI3K α = PI3K α (Homo sapiens (Human), UniProt P42336); assay: PI 3-Kinase (human) HTRF assay, p110α/p85α; format: biochemical; conditions: read-out: PI3K α IC50
PI3K δ = PI3K δ (Homo sapiens (Human), UniProt O00329); assay: PI 3-Kinase (human) HTRF assay, p110δ/p85α; format: biochemical
PI3K γ = PI3K γ (Homo sapiens (Human), UniProt P48736); assay: PI 3-Kinase (human) HTRF assay, p110γ; format: biochemical
PI3K β = PI3K β (Homo sapiens (Human), UniProt P42338); assay: PI 3-Kinase (human) HTRF assay, p110β/p85α; conditions: read-out: PI3K β IC50
MDA-MB-361 cells = assay: MDA-MB-361 tumor cell proliferation; conditions: read-out: PC3 proliferation; column headed PC3; starting with compound 438, proliferation data was obtained using an MDA-MB-361 cell line

| Compound | IC50 (PI3K α) [µM] | IC50 (PI3K δ; read-out: PI3K δ IC50) [µM] | IC50 (PI3K γ; read-out: PI3K γ IC50) [µM] | IC50 (PI3K β) [µM] | IC50 (PI3K δ; read-out: PI3K γ IC50) [µM] | IC50 (PI3K γ; read-out: PI3K δ IC50) [µM] | IC50 (MDA-MB-361 cells) [µM] |
| --- | --- | --- | --- | --- | --- | --- | --- |
| CS(=O)(=O)N1CCC(n2cnc3ccc(-c4ccc5oc(N)nc5c4)cc3c2=O)CC1 | < 1 | > 10 | > 10 |  |  |  |  |
| CC1(C)CN(C2CN(C(=O)c3cnc4ccc(-c5ccc6oc(N)nc6c5)cn34)C2)CCN1 | < 0.1 |  |  | < 10 | < 0.1 | < 1 | < 1 |
| CC(=O)Nc1cc2ccc(-c3cc(F)c4oc(N)nc4c3)cn2n1 | > 10 |  |  | > 10 | > 10 | < 10 |  |
| O=C(c1cnc2ccc(-c3ccc4[nH]nnc4c3)cn12)N1CCOCC1 | < 1 |  |  | < 10 | < 10 | < 10 |  |

Where two headings read alike, the source gives them in different places.
